The target in this experiment is quinone reductase 2 (QR2) (Homo sapiens, UniProt P16083). The experiment in a line: QR2 inhibition, comparative IC50 data. The experiment is classed as biochemical. Particulars: QR2 inhibitors.

Amino acid sequences for entries named in this document (tags omitted).
UniProt P16083, whole entry: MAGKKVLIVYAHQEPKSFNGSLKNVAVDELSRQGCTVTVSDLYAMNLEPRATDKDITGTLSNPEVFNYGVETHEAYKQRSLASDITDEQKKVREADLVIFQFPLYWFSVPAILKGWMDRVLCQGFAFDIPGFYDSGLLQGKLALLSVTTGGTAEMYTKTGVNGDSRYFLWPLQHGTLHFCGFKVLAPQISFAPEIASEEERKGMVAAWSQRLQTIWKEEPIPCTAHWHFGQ

As to `CNc1ccnc2cc(Cl)ccc12`, the IC50 turned out to be 7.23 µM.

What is called IC50 is the concentration that gives 50% inhibition. A higher IC50 goes with lower potency.
